Assay results reported in patent EP4806900A2, “RAS INHIBITORS” (Revolution Medicines, Inc., priority 2019, dated 2021).

Test system: NCI-H358 (K-Ras G12C)
Test: CellTiter-Glo cell viability assay, NCI-H358
Type: cell-based, human
Conditions: read-out: H358 Cell Viability assay data (K-Ras G12C, IC50); Table 5

Row | Compound | IC50
1 | C=CC(=O)N1CC[C@H](C(=O)N(C)[C@H](C(=O)NC2CC3CN(CCO3)c3ccc4c(c3)c(c(-c3cccnc3[C@H](C)OC)n4CC)CC(C)(C)COC(=O)[C@@H]3CC(Br)CN(N3)C2=O)C(C)C)C1 (stereo partly shown) | > 1 µM
2 | CCn1c(-c2cccnc2[C@H](C)OC)c2c3cc(ccc31)-c1cccc(c1)C[C@H](NC(=O)[C@H](C(C)C)N1CC[C@]3(CCN(C(=O)C#C[C@]4(N(C)C)CCOC4)C3)C1=O)C(=O)N1CCC[C@H](N1)C(=O)OCC(C)(C)C2 | < 0.01 µM
3 | C=CC(=O)N1CCC(C#N)(C(=O)N(C)[C@H](C(=O)N[C@H]2Cc3cccc(c3)-c3ccc4c(c3)c(c(-c3cccnc3[C@H](C)OC)n4CC)CC(C)(C)COC(=O)[C@@H]3CCCN(N3)C2=O)C(C)C)C1 (stereo partly shown) | < 0.01 µM
4 | C=CC(=O)N1CC2C(C1)C2C(=O)N(C)[C@H](C(=O)N[C@H]1Cc2cc(O)cc(c2)-c2ccc3c(c2)c(c(-c2cccnc2[C@H](C)OC)n3CC)CC(C)(C)COC(=O)[C@@H]2CCCN(N2)C1=O)C(C)C (stereo partly shown) | 0.01 to 0.1 µM
5 | C=CC(=O)N1CC[C@H](C(=O)N(C)[C@H](C(=O)NC2CC3CN(CCO3)c3ccc4c(c3)c(c(-c3cccnc3COC)n4CC)CC(C)(C)COC(=O)[C@@H]3CCCN(N3)C2=O)C(C)C)C1 (stereo partly shown) | > 1 µM
6 | CCn1c(-c2cncnc2)c2c3cc(ccc31)-c1cccc(c1)C(OC)[C@H](NC(=O)[C@H](C(C)C)N(C)C(=O)[C@H]1CCN(C(=O)C#CCN3CCOCC3)C1)C(=O)N1CCC[C@H](N1)C(=O)OCC(C)(C)C2 (stereo partly shown) | > 1 µM
7 | C=CC(=O)N1CC[C@H](C(=O)N(C)[C@H](C(=O)N[C@H]2Cc3cccc(c3)-c3ccc4c(c3)c(c(-c3cccnc3[C@H](C)OC)n4CC)CC(C)(C)COC(=O)[C@@H]3CCCN(O3)C2=O)C(C)C)C1 | 0.1 to 1 µM
8 | CCn1c(-c2cccnc2COC)c2c3cc(ccc31)-c1cc(C)cc(c1)C[C@H](NC(=O)[C@@H](C(C)C)N(C)C(=O)[C@H]1CCN(C(=O)C#CCN(C)C)C1)C(=O)N1CCC[C@H](N1)C(=O)OCC(C)(C)C2 | 0.01 to 0.1 µM
9 | C=CC(=O)N1CC[C@H](C(=O)N(C)[C@H](C(=O)N[C@H]2Cc3cc(O)cc(c3)-c3ccc4c(c3)c(c(-c3cccnc3[C@H](C)OC)n4C)CC(C)(C)COC(=O)[C@@H]3CCCN(N3)C2=O)C(C)C)C1 | 0.01 to 0.1 µM
10 | C=CC(=O)N(C)[C@H]1C[C@@H]1N(C)C(=O)N(C)[C@H](C(=O)N[C@H]1Cc2nc(cs2)-c2ccc3c(c2)c(c(-c2cccnc2[C@H](C)OC)n3CC)CC(C)(C)COC(=O)[C@@H]2CCCN(N2)C1=O)C(C)C | < 0.01 µM
11 | CCn1c(-c2cccnc2[C@H](C)OC)c2c3cc(ccc31)-c1cccc(c1)C[C@H](NC(=O)[C@H](C(C)C)N1CC[C@]3(CCN(C(=O)C#C[C@@H]4COCCN4C4COC4)C3)C1=O)C(=O)N1CCC[C@H](N1)C(=O)OCC(C)(C)C2 | 0.01 to 0.1 µM
12 | C=CC(=O)N1CC[C@H](C(=O)N(C)[C@H](C(=O)NC2CC3CN(CCO3)c3ccc4c(c3)c(c(-c3cccnc3[C@H](C)OC)n4CC)CC(C)(C)COC(=O)[C@@H]3CCCN(N3)C2=O)C(C)C)C1 (stereo partly shown) | > 1 µM
13 | CCn1c(-c2cccnc2COC)c2c3cc(ccc31)-c1cc(O)cc(c1)C[C@H](NC(=O)[C@H](C(C)C)N(C)C(=O)[C@H]1CCN(C(=O)C#CC(C)(C)N(C)C)C1)C(=O)N1CCC[C@H](N1)C(=O)OCC(C)(C)C2 | < 0.01 µM
